{"source": "patent US20150080844A1", "about": "“THERAPY FOR KIDNEY DISEASE AND/OR HEART FAILURE BY INTRADERMAL INFUSION” (Medtronic, Inc., priority 2012, published 2015)", "origin": "cited, not measured here", "conditions": "cited from earlier work"}
{"substance": "insulin", "values": [{"measurement": "absorption rate by intradermal delivery (in words)", "setting": "Pettis et al.", "result": "increased absorption rate"}, {"measurement": "bioavailability (in words)", "setting": "intradermal delivery, literature", "result": "inability to enhance bioavailability"}]}
